Assay results as given in US6913877B1 (priority 2000, dated 2005).

System: melanophores

Compound: COc1ccc(CCN(C)CCCC(C#N)(c2ccc(OC)c(OC)c2)C(C)C)cc1OC (stereo not shown) [Verapamil]
- melanophore response: does not alter melanophores
